{"sequences": {"note": "Sequences of proteins named here, by UniProt entry; tags and fusion partners are left off. Residues count along the entry.", "UniProt P56817, 46-501 limits assumed": "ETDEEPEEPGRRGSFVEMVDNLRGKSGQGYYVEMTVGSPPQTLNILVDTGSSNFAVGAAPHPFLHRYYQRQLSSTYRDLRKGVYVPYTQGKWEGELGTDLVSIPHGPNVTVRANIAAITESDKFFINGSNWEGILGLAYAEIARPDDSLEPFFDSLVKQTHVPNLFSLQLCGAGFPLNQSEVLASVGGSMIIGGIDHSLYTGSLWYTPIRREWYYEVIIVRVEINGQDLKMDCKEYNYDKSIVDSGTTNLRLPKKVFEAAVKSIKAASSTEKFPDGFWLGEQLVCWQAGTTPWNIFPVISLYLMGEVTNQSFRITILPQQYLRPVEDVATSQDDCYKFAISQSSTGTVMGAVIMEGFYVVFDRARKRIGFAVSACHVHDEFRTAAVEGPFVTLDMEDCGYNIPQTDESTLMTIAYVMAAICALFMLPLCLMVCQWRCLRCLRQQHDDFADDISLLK"}, "source": "patent US8685963B2", "about": "“Compounds that inhibit NFκB and BACE1 activity” (The Trustees of Columbia University in the city of New York, priority 2008, dated 2014)", "target": "BACE1 (Homo sapiens, UniProt P56817)", "test": "cell-based BACE1 assay (sAPPβ modified ELISA) in SY5Y-BACEGFP-SEAPAPPwt cells", "method": "FIG. 8 depicts a sAPPβ assay utilized to identify inhibitors of BACE1. The assay utilizes SY5Y cells stably overexpressing BACE-GFP and SEAP-APPwt. Cells are incubated with a candidate compound for 6 hours prior to harvesting media. BACE1-mediated cleavage of APP results in the release of sAPPβ into the media. α-secretase, a competing enzyme that is non-amyloidogenic, also cleaves APP to release […]. Using an sAPPβ-specific antibody (sβwt), SEAP-sAPPβ is specifically captured in a modified ELISA assay. Detection is achieved by addition of the fluorescent alkaline phosphatase substrate, 4-methylumbelliferyl phosphate (4-MUP).\nFIG. 10A-B depicts SAR studies of N-(quinolin-8-yl)benzenesulfonamides. 28 full and partial hits, shown in (A) for compounds 1-26 and (B) for compounds 27 and 28, from the targeted screen of N-(quinolin-8-yl)benzenesulfonamides were characterized in SY5Y-BACEGFP-SEAPAPPwt cells using the cell-based BACE1 assay. All compounds were tested at 8 concentrations (30, 10, 3, 1, 0.3, 0.1, 0.03, and 0.01 μM), and data points were analyzed with Origin software and fitted using a logistic model for IC50 determination.\nA cell-based modified ELISA assay for measuring sAPPβ, the secreted ectodomain of β-amyloid precursor protein (APP) following […] (BACE1) cleavage, was used to identify a class of compounds that interfered with the first step of sAPPβ generation. […]", "data": [{"smiles": "O=S(=O)(Nc1cc(Br)cc2cccnc12)c1ccc2ccccc2c1", "values": [{"measurement": "potency for sAPPβ reduction (in words)", "result": "sub-micromolar"}, {"measurement": "IC50", "setting": "read-out: IC50 (sAPPβ), 8-point dose-response (30-0.01 μM)", "result": 790, "unit": "nM"}]}]}
